Measurements reported in ChEMBL document CHEMBL3228021, “Studies on analgesic agents. 1.1a Preparation of 1,2-diphenyl-2-(4-substituted 1-piperazinyl)ethanol derivatives and structure-activity relationships” (J Med Chem, 1979).
The source made the active and inactive calls. The rule behind the calls is not given here.

How the values were obtained:
[1] = system: Mus musculus; assay: Analgesic activity in sc dosed ddN mouse assessed as inhibition of light radiation-induced thermal pain in presence of naloxone hydrobromide by D'Amour-Smith method
[2] = system: Mus musculus; assay: Analgesic activity in po dosed ddN mouse assessed as inhibition of phenylquinone-induced writhing in presence of naloxone hydrobromide

COc1ccc(CN2CCN(C(c3ccccc3Cl)C(O)c3ccccc3)CC2)cc1 (stereo unspecified)
inhibition [1]: inactive
inhibition [2]: inactive

COc1ccc2c3c1O[C@H]1[C@@H](O)C=C[C@H]4[C@@H](C2)N(C)CC[C@@]341.COc1ccc2c3c1O[C@H]1[C@@H](O)C=C[C@H]4[C@@H](C2)N(C)CC[C@@]341.O.O=P(O)(O)O.O=P(O)(O)O [CODEINE PHOSPHATE]
inhibition [1]: inactive
inhibition [2]: inactive

CC(C)=CCN1CC[C@]2(C)c3cc(O)ccc3C[C@H]1[C@H]2C
inhibition [1]: inactive
inhibition [2]: inactive
